Yeast mating assay 2: variants of the scFv Ab-95

Binding partner: SARS-CoV-2 spike HR2 peptide, sequence PDVDLGDISGINAS.

The variants keep the heavy chain, the linker and the frameworks of Ab-95 (scFv order VH, a 15-residue (Gly4Ser)3 linker, VL).
VH: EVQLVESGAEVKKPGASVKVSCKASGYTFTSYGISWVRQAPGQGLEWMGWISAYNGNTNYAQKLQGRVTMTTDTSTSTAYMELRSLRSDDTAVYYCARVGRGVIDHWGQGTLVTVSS
VL: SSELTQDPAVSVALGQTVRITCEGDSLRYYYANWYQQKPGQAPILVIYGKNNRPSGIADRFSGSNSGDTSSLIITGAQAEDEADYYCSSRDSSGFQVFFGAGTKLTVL

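The starting antibody came from a phage panning campaign against this peptide. Variants in AAYL52 differ from the parent at up to three CDR positions; double and triple changes were sampled at random. The assay is AlphaSeq: two haploid yeast populations carry antibody and antigen on their surface. Pairs that bind mate more often; barcode pairs of the diploids are counted by sequencing. Scores were corrected for input abundance and mapped to Kd with protein pairs of known affinity run in the same pool. The assay was run in three technical replicates.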

The parent's light chain CDRs are EGDSLRYYYAN, GKNNRPS, SSRDSSGFQVF; each variant's own CDRs replace them letter for letter. Values are log10 of the apparent Kd in nM; lower means stronger binding. Averages over replicates are reported, and they cover detected replicates only. A pair that was not seen in that replicate is written "ND"; this usually means weak binding, but a binder can also be missed. In this assay the parent's reference entry averaged 2.31; its copy inside this library read 2.25.

| # | CDR-L1 | CDR-L2 | CDR-L3 | replicates, log10 nM | mean log10 Kd (nM) | empty controls |
|---|---|---|---|---|---|---|
| 1 | EGDSLRIYYAN | GKNYRPS | SSRDSSGFQVF | 3.64 / 5.54 / ND | 4.59 | 2 of 9 (4.01) |
| 2 | EGDKTRYYYAN | GKNNRPS | SSEDSSGFQVF | ND / ND / ND | ND | 2 of 9 (3.87) |
| 3 | EGDSLRYYYDN | GWNNRPS | SDRDSSGFQVF | ND / ND / ND | ND | 2 of 9 (3.60) |
| 4 | EHLSLRYYYAN | YKNNRPS | SSRDSSGFQVF | ND / ND / ND | ND | 2 of 9 (4.25) |
| 5 | SGDSLRYYYAN | GKNNQPS | SSRDSSGLQVF | 3.34 / 2.57 / 3.62 | 3.18 | 7 of 9 (4.02) |
| 6 | YGDSLRYYYAN | GKNNRPA | KSRDSSGFQVF | ND / ND / ND | ND | 0 of 9 |
| 7 | EGDSLHYYYAN | GKNNRPS | SSRWSGGFQVF | 3.09 / 2.77 / 2.70 | 2.85 | 1 of 9 (3.24) |
| 8 | DGDSLRYYYAN | GRNNRPS | SMRDSSGFQVF | 3.32 / 3.98 / 3.68 | 3.66 | 6 of 9 (4.42) |
| 9 | EGDSLRYYVAN | GKNNRPS | SSDDSSTFQVF | 5.05 / ND / 3.95 | 4.50 | 1 of 9 (3.54) |
| 10 | EGDSLYYYYAN | GKNNKPS | NSRDSSGFQVF | 3.77 / 3.85 / 3.16 | 3.59 | 2 of 9 (4.01) |
| 11 | EGDSLNYYMAN | GKNTRPS | SSRDSSGFQVF | 2.15 / 1.93 / 1.48 | 1.85 | 4 of 9 (4.33) |
| 12 | EGDTQRYYYAN | GKNNRPS | SSRVSSGFQVF | ND / 4.95 / ND | 4.95 | 2 of 9 (4.24) |
| 13 | EVDTLRFYYAN | GKNNRPS | SSRDSSGFQVF | 5.00 / 5.84 / ND | 5.42 | 3 of 9 (3.49) |
| 14 | EGDSLRYYYAL | GKNNRPV | SSRDSSGFQVW | 3.76 / ND / ND | 3.76 | 1 of 9 (5.27) |
| 15 | EGDPLTYYNAN | GKNNRPS | SSRDSSGFQVF | 2.54 / 2.53 / 2.50 | 2.52 | 4 of 9 (3.51) |
| 16 | EGDHLRCYYAN | GKNNRPS | SSYDSSGFQVF | 4.69 / 4.27 / 4.64 | 4.54 | 4 of 9 (4.23) |
| 17 | EGDSLRYYYAN | GQNNRPS | SSRDIAGFQVF | 2.52 / 2.68 / 2.44 | 2.55 | 2 of 9 (4.40) |
| 18 | IGDSYRYWYAN | GKNNRPS | SSRDSSGFQVF | ND / ND / 4.56 | 4.56 | 4 of 9 (3.77) |
| 19 | EGDSLRYYYAN | GKNNRPG | SSRDSSGFQVF | 2.49 / 2.02 / 2.27 | 2.26 | 5 of 9 (3.77) |
| 20 | EGDSLRYYYAI | GKNNRPS | SSRDSSAFQVF | 2.95 / 2.44 / 2.85 | 2.75 | 2 of 9 (3.85) |
| 21 | EGDSLRYYYAN | GKNNRPS | SSLDHSGKQVF | 4.14 / 3.61 / 2.08 | 3.28 | 1 of 9 (3.94) |
| 22 | EGDSWRYYYAN | IKNNPPS | SSRDSSGFQVF | ND / 3.63 / ND | 3.63 | 4 of 9 (3.89) |
| 23 | EGDSLRYYYAN | GKNNRPS | NPRDSSGFQVF | 3.07 / ND / ND | 3.07 | 2 of 9 (3.70) |
| 24 | FGDSLRYYYAN | GRNNRPS | SSRDSSGFQVY | 2.73 / 2.74 / 2.37 | 2.62 | 1 of 9 (4.40) |
| 25 | EGDSTRYYYAN | GKNNRPS | SSRDSSQFVVF | 3.63 / 4.29 / ND | 3.96 | 1 of 9 (4.62) |
| 26 | ECDSLRYYYAN | GKNNRPS | SSRDSSGFQDF | 3.38 / 3.68 / ND | 3.53 | 3 of 9 (3.84) |
| 27 | EGYSLRYYDVN | GKNNRPS | SSRDSSGFQVF | 1.24 / 1.10 / 0.54 | 0.96 | 4 of 9 (4.27) |
| 28 | EGDSLRYYYAI | GKNCDPS | SSRDSSGFQVF | 4.22 / ND / ND | 4.22 | 4 of 9 (3.90) |
| 29 | EGDSNRRYDAN | GKNNRPS | SSRDSSGFQVF | 2.34 / 2.24 / 2.44 | 2.34 | 3 of 9 (3.45) |
| 30 | EWDSLRYYYAN | YKNNRPS | SSRDSMGFQVF | 4.85 / ND / ND | 4.85 | 6 of 9 (3.80) |
| 31 | FGDSLRWYYAN | GKNNRPS | VSRDSSGFQVF | 4.21 / 2.72 / 4.19 | 3.71 | 7 of 9 (4.06) |
| 32 | EGDSLRYYYAN | GIPNRPS | SSRDSSRFQVF | ND / ND / ND | ND | 2 of 9 (3.87) |
| 33 | EGDSLRYYYAN | GKNNRPS | SSRDSDWFQDF | ND / ND / ND | ND | 1 of 9 (4.02) |
| 34 | EGDTLRYRYAN | GKNNRPS | SSRDLSGFQVF | 1.85 / 1.82 / 1.54 | 1.74 | 2 of 9 (3.91) |
| 35 | IGDSLRYYYAN | GKEIRPS | SSRDSSGFQVF | 2.87 / 2.66 / ND | 2.76 | 1 of 9 (3.66) |
| 36 | EHRSLRYYYAN | GKVNRPS | SSRDSSGFQVF | ND / ND / ND | ND | 6 of 9 (4.26) |
| 37 | EGDSLGYYYAN | GKNNRPN | STRDSSGFQVF | 2.09 / 1.89 / 2.30 | 2.09 | 4 of 9 (3.65) |
| 38 | SGDSLRYYYYN | RKNNRPS | SSRDSSGFQVF | ND / ND / ND | ND | 0 of 9 |
| 39 | EGCSLRYVYAN | GKNNRPS | SSRDSSGFQMF | ND / 6.01 / 3.91 | 4.96 | 3 of 9 (4.23) |
| 40 | EGDSLRYDYAN | GKNKRPS | SSRDSAGFQVF | 2.65 / 2.03 / 2.46 | 2.38 | 0 of 9 |
| 41 | EGDSLRYYYAN | WKNNRNS | SSRDQSGFQVF | 5.23 / 5.56 / 3.06 | 4.62 | 2 of 9 (4.24) |
| 42 | ENDSLRYYYMN | GKNNRPS | SSRDSSGFQDF | 2.68 / 2.82 / 2.76 | 2.75 | 4 of 9 (4.53) |
| 43 | EGDSLRYYYAC | GKPNRPS | SERDSSGFQVF | ND / 3.62 / 3.76 | 3.69 | 2 of 9 (3.04) |
| 44 | FGDSLTYYNAN | GKNNRPS | SSRDSSGFQVF | 1.63 / 1.62 / 1.10 | 1.45 | 1 of 9 (5.39) |
| 45 | EGQSLRYYYAN | GKNNRPS | SSRDSAGKQVF | 4.39 / 3.89 / ND | 4.14 | 4 of 9 (4.21) |
| 46 | EGDYLRMYYAN | DKNNRPS | SSRDSSGFQVF | 3.86 / ND / 4.22 | 4.04 | 1 of 9 (4.37) |
| 47 | EGDSLRYYYAN | GKNNRQL | SSRDSSGFQVF | 2.58 / 3.00 / 2.48 | 2.69 | 2 of 9 (3.80) |

Picked from the list: the 5 lowest averages where every replicate gave a value.

{"CDR-L1": "EGYSLRYYDVN", "CDR-L2": "GKNNRPS", "CDR-L3": "SSRDSSGFQVF", "replicates, log10 nM": "1.24 / 1.10 / 0.54", "mean log10 Kd (nM)": "0.96", "empty controls": "4 of 9 (4.27)"}
{"CDR-L1": "FGDSLTYYNAN", "CDR-L2": "GKNNRPS", "CDR-L3": "SSRDSSGFQVF", "replicates, log10 nM": "1.63 / 1.62 / 1.10", "mean log10 Kd (nM)": "1.45", "empty controls": "1 of 9 (5.39)"}
{"CDR-L1": "EGDTLRYRYAN", "CDR-L2": "GKNNRPS", "CDR-L3": "SSRDLSGFQVF", "replicates, log10 nM": "1.85 / 1.82 / 1.54", "mean log10 Kd (nM)": "1.74", "empty controls": "2 of 9 (3.91)"}
{"CDR-L1": "EGDSLNYYMAN", "CDR-L2": "GKNTRPS", "CDR-L3": "SSRDSSGFQVF", "replicates, log10 nM": "2.15 / 1.93 / 1.48", "mean log10 Kd (nM)": "1.85", "empty controls": "4 of 9 (4.33)"}
{"CDR-L1": "EGDSLGYYYAN", "CDR-L2": "GKNNRPN", "CDR-L3": "STRDSSGFQVF", "replicates, log10 nM": "2.09 / 1.89 / 2.30", "mean log10 Kd (nM)": "2.09", "empty controls": "4 of 9 (3.65)"}

Background: pairings of library AAYL52 with three empty control strains gave a value in 28% of cases (median 3.91, 5th percentile 2.90). Values in that range, when seen in few replicates, are hard to tell from nonspecific mating. Also given: how often the same scFv was detected with the empty control strains, with their mean in brackets.

Data: MIT Lincoln Laboratory AlphaSeq set, Engelhart et al. 2022, doi:10.1038/s41597-022-01779-4, as distributed in FLAb.